scFv variants of Ab-14 (light chain) against a SARS-CoV-2 spike peptide

Values reported by Engelhart et al. 2022, doi:10.1038/s41597-022-01779-4 (FLAb copy).

All variants were tested on one target, the spike HR2 peptide PDVDLGDISGINAS (SARS-CoV-2).

The variants keep the heavy chain, the linker and the frameworks of Ab-14 (scFv order VH, a 15-residue (Gly4Ser)3 linker, VL).
VH: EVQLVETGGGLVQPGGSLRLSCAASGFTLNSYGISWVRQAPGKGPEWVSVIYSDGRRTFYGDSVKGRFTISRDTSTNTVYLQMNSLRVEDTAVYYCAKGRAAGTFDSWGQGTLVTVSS
VL: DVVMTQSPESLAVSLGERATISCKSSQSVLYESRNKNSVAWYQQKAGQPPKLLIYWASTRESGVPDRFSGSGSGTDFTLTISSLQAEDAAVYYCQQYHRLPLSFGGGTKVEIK

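The starting antibody came from a phage panning campaign against this peptide. Variants in AAYL50 differ from the parent at up to three CDR positions; double and triple changes were sampled at random. Affinity was read by AlphaSeq, a pooled yeast mating assay with surface-displayed partners. The frequency of each diploid, read from paired DNA barcodes, reflects how well the two displayed proteins bind. A regression on co-assayed BCL2-family reference pairs converts the normalised counts of each replicate to an apparent Kd. Mating was done three times.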

Substitutions are numbered in sequence along the VL above, starting at 1 (not Kabat).
All variants listed here change Q27 of the VL, counted from its first residue.
Values are apparent Kd, the geometric mean of the replicates that gave a signal; lower means stronger binding.
A pair that was not seen in any replicate is written "no signal"; this usually means weak binding, but a binder can also be missed.

* Q27K E32V S33H = 13 nM (3 of 3 replicates)
* Q27E S33N S103M = 31 µM (3 of 3 replicates)
* Q27K L30K S33A = 14 nM (3 of 3 replicates)
* Q27H L30K N35A = no signal (0 of 3 replicates)
* Q27W A40L E61P = 45 µM (1 of 3 replicates)
* S25E Q27T = no signal (0 of 3 replicates)
* Q27M V29N L30N = 180 nM (3 of 3 replicates)
* Q27N E61C Q96A = no signal (0 of 3 replicates)
* S26W Q27Y V39M = 190 nM (3 of 3 replicates)
* Q27C V29D Q96F = 61 nM (3 of 3 replicates)
* Q27A V29R S33Q = 18 nM (3 of 3 replicates)
* Q27T Q96N = no signal (0 of 3 replicates)
* Q27L A57V R99D = no signal (0 of 3 replicates)
* Q27T L100A = 21 µM (1 of 3 replicates)
* S25I Q27I L30I = 4.4 µM (3 of 3 replicates)
* K24P Q27G S38G = 6.4 µM (2 of 3 replicates)
* Q27M R99S = 27 nM (3 of 3 replicates)
* S25P Q27T N35G = no signal (0 of 3 replicates)
* S26P Q27M = 84 nM (3 of 3 replicates)
* Q27T S38Y S62R = 36 nM (3 of 3 replicates)
* Q27C A57I P101H = no signal (0 of 3 replicates)
* Q27E Q96K P101C = 140 nM (3 of 3 replicates)
* Q27R R60P L100F = 1.9 µM (2 of 3 replicates)
* Q27C N35M S38K = no signal (0 of 3 replicates)
* Q27R S33K P101E = no signal (0 of 3 replicates)
* Q27T H98L = 720 pM (3 of 3 replicates)
* Q27N S58M R60S = 100 µM (2 of 3 replicates)
* Q27E K36N = 1.6 µM (3 of 3 replicates)
* Q27C R99W P101K = 17 nM (3 of 3 replicates)
* Q27W S28P W56I = 21 µM (3 of 3 replicates)
* K24Y Q27E S62F = 37 nM (3 of 3 replicates)
* S25W Q27L = 41 nM (3 of 3 replicates)
* S25T Q27C W56M = 24 nM (3 of 3 replicates)
* Q27S E32C W56C = no signal (0 of 3 replicates)
* Q27N E32S H98K = 280 nM (2 of 3 replicates)
* Q27R L30K S103Q = 62 nM (3 of 3 replicates)
* S25Y Q27E E61F = 26 nM (3 of 3 replicates)

A selection of 5 entries from above:

changes,Kd,seen in
Q27T L100A,21 µM,1/3
Q27M R99S,27 nM,3/3
Q27N S58M R60S,100 µM,2/3
Q27W A40L E61P,45 µM,1/3
Q27K L30K S33A,14 nM,3/3

Three control strains display no target. For library AAYL50, 18% of the pairings with them gave a signal, with a median of 15 µM and one signal in twenty below 970 nM, so weak values seen in few replicates may be background.